## scFv variants of Ab-14 (heavy chain) against a SARS-CoV-2 spike peptide

Binding partner: SARS-CoV-2 spike HR2 peptide, sequence PDVDLGDISGINAS.

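The parent was found by panning a naive human phage display library on the peptide. Designed CDR sequences, proposed from the first random library and measured here. Group labels follow the data file (En: ensemble of fine-tuned language models; HC: hill climbing; Gen: genetic algorithm; Gibbs: Gibbs sampling; a sequence that several methods proposed may carry one label only). Affinity was read by AlphaSeq, a pooled yeast mating assay with surface-displayed partners. Pairs that bind mate more often; barcode pairs of the diploids are counted by sequencing. A regression on co-assayed BCL2-family reference pairs converts the normalised counts of each replicate to an apparent Kd. There are six technical replicates.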

Parent: Ab-14, a human scFv built as VH, a 15-residue (Gly4Ser)3 linker, VL. Only the CDRs of the heavy chain vary.
VH: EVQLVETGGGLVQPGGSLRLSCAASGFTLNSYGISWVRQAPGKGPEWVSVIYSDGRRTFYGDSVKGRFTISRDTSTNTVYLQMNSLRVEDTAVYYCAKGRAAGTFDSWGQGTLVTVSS
VL: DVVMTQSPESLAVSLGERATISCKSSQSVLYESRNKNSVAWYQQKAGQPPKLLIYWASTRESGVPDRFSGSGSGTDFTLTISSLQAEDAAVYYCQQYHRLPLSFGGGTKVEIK

The whole VH of each variant is written out. Variants here have more than six changes. Scale: log10 of Kd in nM, estimated from mating counts; low values are strong binders. Averages over replicates are reported, and they cover detected replicates only. "nd" marks a missing value. The strain was present, yet no cells mated with the target were sequenced in any replicate, which points to weak or no binding. In the paper, a design with two or fewer of six values counts as a poor binder. Nonspecific signal, from three strains lacking the peptide, appeared in 1% of pairings of all heavy chain designs, centred on 2.08 (5% of these signals below 0.84); values are not corrected for it. The control count says in how many pairings with the empty strains this scFv gave a signal. A sequence measured in both rounds can read differently, since the two assays cover different ranges.

With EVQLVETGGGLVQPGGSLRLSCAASGFDLNEYGISWVRQAPGKGPEWVSVIYADGSRTAYADDVKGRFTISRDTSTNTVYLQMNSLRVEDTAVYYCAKGENAGTFDQWGQGTLVTVSS [En_Gen] the result was -0.05 (6 of 6 replicates; controls 0 of 18). For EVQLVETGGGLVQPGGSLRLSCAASGFDLNEYGISWVRQAPGKGPEWVSVIYADGQRTAYIDSVKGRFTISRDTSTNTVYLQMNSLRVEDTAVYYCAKGNQAGTFDVWGQGTLVTVSS [En_Gen], the assay gave -0.32 (6 of 6 replicates; controls 0 of 18). Variant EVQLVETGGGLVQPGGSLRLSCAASGFDLNEYGISWVRQAPGKGPEWVSVIYADGSRTFYSDSVKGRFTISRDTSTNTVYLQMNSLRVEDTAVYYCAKGNAAGTFDVWGQGTLVTVSS [En_HC] gave -0.47 (6 of 6 replicates; controls 0 of 18). With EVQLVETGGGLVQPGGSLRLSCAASGFDLNEYGISWVRQAPGKGPEWVSVIYADGKRTAYADSVKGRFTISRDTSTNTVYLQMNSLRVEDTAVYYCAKGGTAGTFDVWGQGTLVTVSS [En_Gen] the result was 0.39 (6 of 6 replicates; controls 0 of 18). For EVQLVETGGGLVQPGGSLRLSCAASGFDLMEYGVSWVRQAPGKGPEWVSVIYADGQRTYYTNAVKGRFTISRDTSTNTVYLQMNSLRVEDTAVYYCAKGEISAGFLIWGQGTLVTVSS [En_Gibbs], the assay gave nd (0 of 6 replicates; controls 0 of 18). Variant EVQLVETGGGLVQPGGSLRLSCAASGFDLDEYGISWVRQAPGKGPEWVSVIYADGMRTAYADKVKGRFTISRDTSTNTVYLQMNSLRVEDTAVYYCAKGETAGTFDVWGQGTLVTVSS [En_Gen] showed 0.04 (6 of 6 replicates; controls 0 of 18). With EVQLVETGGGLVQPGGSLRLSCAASGFNLDEYGISWVRQAPGKGPEWVSVIYADGMRTAYADSVKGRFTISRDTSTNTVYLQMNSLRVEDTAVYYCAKGNNAGTFDVWGQGTLVTVSS [En_Gen] the result was -0.24 (6 of 6 replicates; controls 0 of 18). With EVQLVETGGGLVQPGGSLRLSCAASGFDLNEYGISWVRQAPGKGPEWVSVIYADGRRTAYGDSVKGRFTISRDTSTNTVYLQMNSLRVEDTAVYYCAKGNNAGTFDQWGQGTLVTVSS [En_HC] the result was -0.66 (6 of 6 replicates; controls 0 of 18).

Variant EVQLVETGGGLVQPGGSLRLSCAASGFDINEYGISWVRQAPGKGPEWVSVIYADGRRTFYADSVKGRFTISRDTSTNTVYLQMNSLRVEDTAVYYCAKGNQAGTFDLWGQGTLVTVSS [En_HC] gave -0.07 (6 of 6 replicates; controls 0 of 18). Variant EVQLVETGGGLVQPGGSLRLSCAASGFDLDEYGVSWVRQAPGKGPEWVSVIYADGRRKKYADSVKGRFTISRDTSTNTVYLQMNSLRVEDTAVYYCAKGTQGGTILAWGQGTLVTVSS [En_Gibbs] gave 1.62 (1 of 6 replicates; controls 0 of 18). Variant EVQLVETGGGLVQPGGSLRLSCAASGFDLEEYGISWVRQAPGKGPEWVSVIYADGKRTFYSDSVKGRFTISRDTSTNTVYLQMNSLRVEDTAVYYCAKGENAGTFDVWGQGTLVTVSS [En_HC] showed -0.85 (6 of 6 replicates; controls 0 of 18). For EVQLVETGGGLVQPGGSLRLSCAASGFDINEYGISWVRQAPGKGPEWVSVIYADGKKTAFANTVKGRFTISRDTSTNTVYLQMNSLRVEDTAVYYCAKGESAGNFDDWGQGTLVTVSS [En_Gibbs], the assay gave nd (0 of 6 replicates; controls 0 of 18). Variant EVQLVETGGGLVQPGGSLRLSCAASGFDLNEYGISWVRQAPGKGPEWVSVIYADGMRTVYSDSVKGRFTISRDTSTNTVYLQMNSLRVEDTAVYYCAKGENAGTFDVWGQGTLVTVSS [En_Gen] showed -0.16 (6 of 6 replicates; controls 0 of 18). For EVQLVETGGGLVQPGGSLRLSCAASGFDIEKYGISWVRQAPGKGPEWVSVIYADGQRSAYASSVKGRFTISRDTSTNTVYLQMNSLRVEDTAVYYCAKGHEAGNFHVWGQGTLVTVSS [En_Gibbs], the assay gave nd (0 of 6 replicates; controls 0 of 18).

The 2 strongest on average among those seen in every replicate, once more:

VH,group,"mean, log10 nM",seen in,control signals
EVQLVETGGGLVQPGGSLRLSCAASGFDLEEYGISWVRQAPGKGPEWVSVIYADGKRTFYSDSVKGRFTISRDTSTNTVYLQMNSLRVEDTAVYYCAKGENAGTFDVWGQGTLVTVSS,En_HC,-0.85,6 of 6,0 of 18
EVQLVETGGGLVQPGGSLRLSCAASGFDLNEYGISWVRQAPGKGPEWVSVIYADGRRTAYGDSVKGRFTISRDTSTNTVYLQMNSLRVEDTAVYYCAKGNNAGTFDQWGQGTLVTVSS,En_HC,-0.66,6 of 6,0 of 18

Reference: Li et al. 2023, doi:10.1038/s41467-023-39022-2. File: FLAb, binding data.